Assay results reported in US20170190775A1 (published 2017).
Where a chain is given by its changes, count along the chain named. Names and notes keep the numbering of the source.

Chains of the proteins cited; added tags and fusions are not shown. Chains listed by the source or under a name are the forms on record and can include a tag or linker. Residues count along the entry.
UniProt Q9NP99, 21-234 limits assumed: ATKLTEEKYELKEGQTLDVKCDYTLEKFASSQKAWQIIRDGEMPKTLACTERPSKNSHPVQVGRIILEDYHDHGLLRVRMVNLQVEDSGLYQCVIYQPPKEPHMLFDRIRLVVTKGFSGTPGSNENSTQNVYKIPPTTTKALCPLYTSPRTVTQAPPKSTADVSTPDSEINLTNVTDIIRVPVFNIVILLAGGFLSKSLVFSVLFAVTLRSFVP
UniProt Q9NP99, 21-200 limits assumed: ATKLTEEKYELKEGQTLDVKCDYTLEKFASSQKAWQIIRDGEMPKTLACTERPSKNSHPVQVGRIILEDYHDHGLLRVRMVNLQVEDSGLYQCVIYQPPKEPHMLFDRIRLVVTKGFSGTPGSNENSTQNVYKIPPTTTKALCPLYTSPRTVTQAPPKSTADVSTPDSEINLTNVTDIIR
human TREM-1 Ala mut 16 (construct 0236), R128A, one chain, as listed by the source R128A R128A limits assumed: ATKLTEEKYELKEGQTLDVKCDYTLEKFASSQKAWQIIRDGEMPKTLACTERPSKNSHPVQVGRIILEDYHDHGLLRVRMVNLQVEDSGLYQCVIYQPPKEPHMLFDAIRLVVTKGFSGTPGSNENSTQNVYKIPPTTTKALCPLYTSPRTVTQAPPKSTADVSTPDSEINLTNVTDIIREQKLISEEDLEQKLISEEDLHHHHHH
human TREM-1 Ala mut 15 (construct 0235), D127A, one chain, as listed by the source D127A D127A limits assumed: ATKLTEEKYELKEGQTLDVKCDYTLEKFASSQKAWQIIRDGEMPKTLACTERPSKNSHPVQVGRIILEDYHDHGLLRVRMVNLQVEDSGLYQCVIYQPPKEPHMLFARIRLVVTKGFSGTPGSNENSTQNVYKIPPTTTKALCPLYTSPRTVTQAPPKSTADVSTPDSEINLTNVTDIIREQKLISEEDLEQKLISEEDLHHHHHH

T1: cynomolgus TREM-1 (cTREM-1) protein (cynomolgus monkey)
T1 construct: also called cyno TREM-1
T1 chain: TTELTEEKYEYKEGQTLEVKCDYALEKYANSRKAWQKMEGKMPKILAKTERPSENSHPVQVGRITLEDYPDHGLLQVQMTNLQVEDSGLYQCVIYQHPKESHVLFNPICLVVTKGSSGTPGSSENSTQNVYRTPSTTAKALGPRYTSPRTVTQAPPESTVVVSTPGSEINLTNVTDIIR

B1: mAb 0054 (antibody, V domains shown)
VH: EVQLVESGGGLVQPKGSLKLSCAASGFTFNTYAMHWVRQAPGKGLEWVARIRTKSNNYATYYVDSVKDRITISRDDSQSMLYLQMNNLKTEDTAMYYCVRDMGIRRQFAYWGQGTLVTVSA
VL: DIVLTQSPASLAVSLGQRATISCRASESVDSFGISFMHWYQQSPGQPPKLLIYRASNLESGIPARFSGSGSRTDFTLTINPVEADDVATYYCQQSNEDPYTFGGGTKLEIKR
notes: Hybridoma antibody 14F128A1; also called 14F128A1; 14F128
B2: mAb 0048 (antibody, V domains shown)
VH: B1 VH
VL: B1 VL
notes: also called 14F11A1B1; 14F11
B3: 14F113 (m14F113, hybridoma 14F113A1B1C1) (antibody, V domains shown)
VH: B1 VH with A23G, G26D, K43M, G44A, N56S, V63A, I70F, S79N, I104Q
VL: B1 VL with S31T, G33D, I34Y, M37L, S43K, K111E
B4: mAb 0044 (antibody, IgG2a, V domains shown)
VH: B1 VH with V5E, A23G, G26D, K43M, G44A, N56S, V63A, I70F, S79N, I104Q
VL: B1 VL with S31T, G33D, I34Y, M37L, S43K, K111E
notes: Hybridoma antibody; also called 14F69A1; 14F69
B5: mAb 0122 (antibody, human IgG4 S228P, kappa, V domains shown)
VH: EVQLVESGGGLVQPGGSLKLSCAASGFTFSTYAMHWVRQASGKGLEWVGRIRTKSSNYATYYAASVKGRFTISRDDSKNTAYLQMNSLKTEDTAVYYCTRDMGQRRQFAYWGQGTLVTVSS
VL: DIVLTQSPDSLAVSLGERATINCRASESVDTFDYSFLHWYQQKPGQPPKLLIYRASNLESGVPDRFSGSGSGTDFTLTISSLQAEDVAVYYCQQSNEDPYTFGQGTKLEIKR
notes: Second humanised TREM-1 antibody; also called 14F113/14F69 hz variant LC M4L
B6: mAb 0090 (antibody, V domains shown)
VH: B5 VH
VL: DIVMTQSPDSLAVSLGERATINCRASESVDTFDYSFLHWYQQKPGQPPKLLIYRASNLESGVPDRFSGSGSGTDFTLTISSLQAEDVAVYYCQQSNEDPYTFGQGTKLEIK
notes: Recombinant, humanised 14F113; also called 14F113 fully humanized
B7: mAb 0170 (antibody, human IgG4 S228P, kappa, V domains shown)
VH: B5 VH with Q104I
VL: B5 VL
notes: Final humanised antibody from hybridoma 14F113 with LC M4L back-mutation and HC CDR3 Q98I (Kabat); also called 14F113/14F69 hz variant LC Q98I
B8: Fab region of mAb 0170 (Fab, V domains shown)
VH: B5 VH with Q104I
VL: B5 VL
notes: also called 0170 Fab; Fab 0170
B9: mAb 0059 (antibody, IgG1, V domains shown)
VH: B1 VH with A23G, G26D, K43M, G44A, N56S, V63A, I70F, S79N, I104Q
VL: B1 VL with S31T, G33D, I34Y, M37L, S43K, K111E
notes: Recombinant; also called 14F113/14F69; 14F113A1B1C1 (recombinant)
B10: mAb 0070 (antibody, IgG4, V domains shown)
VH: B1 VH with A23G, G26D, K43M, G44A, N56S, V63A, I70F, S79N, I104Q
VL: B1 VL with S31T, G33D, I34Y, M37L, S43K, K111E
notes: also called 14F113/14F69 (recombinant); a-Trem-1 0070 (hIgG4)
B11: mAb 0124 (antibody, V domains shown)
VH: B5 VH
VL: B6 VL with G72R
notes: Recombinant; LC G68R (Kabat) in CDR grafted 14F113; also called 14F113/14F69 hz variant LC G68R; 14F113 hz variant LC G68R
B12: mAb 0120 (antibody, V domains shown)
VH: B5 VH with A81L
VL: B6 VL
notes: Recombinant; HC A78L (Kabat) back-mutation in CDR grafted 14F113; also called 14F113/14F69 hz variant HC A78L
B13: mAb 0068 (antibody, V domains shown)
VH: B1 VH
VL: B1 VL
notes: Recombinant; also called 14F128/14F11 (recombinant)
B14: mAb 0067 (antibody, V domains shown)
VH: B1 VH
VL: B1 VL
notes: also called 14F11A1B1 (recombinant)

These binders were tested against T2, human TREM-1 on cells (human, UniProt Q9NP99 21-234) (assay: cell-based or functional assay).

Luminescence, BWZ/hTREM-1 reporter cell + activated neutrophils (8.8 x 10E6 without antibody)	Binder
300000 luminescence	B1
400000 luminescence	B2
300000 luminescence	B3
400000 luminescence	B4

Biological target: T2, human TREM-1 on cells
Assay: cell-based or functional assay
Remark: another data set of the same source

IC50 of TNFalpha release, human M2 macrophages + PGLYRP1 + PGN	Binder
0.014 µg/mL	B5
0.021 µg/mL	B6
0.012 µg/mL	B7

These binders were tested against human TREM-1 Ala mut 15 (construct 0235), D127A (human) (assay: SPR, TREM-1 variant captured by anti-His, Fab as analyte).

KD relative to 0247	Binder
1.1 fold	B8

Each binder was assayed against human TREM-1 Ala mut 16 (construct 0236), R128A (human) in the same assay as above.

KD relative to 0247	Binder
0.9 fold	B8

Biological target: T2, human TREM-1 on cells
Assay: cell-based or functional assay
Remark: another data set of the same source

% Inhibition compared to isotype, TNFalpha release of PBMCs + PGN-SA + PGLYRP1, antibody at 0.167 nM	Binder
61%	B9
76%	B10
68%	B4

The binders below were run against human TREM-1 (hTREM-1) protein (human, UniProt Q9NP99 21-200, limits assumed) (assay: SPR, mAb captured by anti-Fc, hTREM-1 as analyte).

Kd	koff	kon	Binder
0.6 nM	0.0014 s⁻¹	2.5e+06 M⁻¹ s⁻¹	B5
0.77 nM	0.0015 s⁻¹	2.1e+06 M⁻¹ s⁻¹	B6
0.61 nM	0.0012 s⁻¹	2e+06 M⁻¹ s⁻¹	B11
0.67 nM	0.0015 s⁻¹	2.2e+06 M⁻¹ s⁻¹	B12
2.4 nM	0.0038 s⁻¹	1.6e+06 M⁻¹ s⁻¹	B1
0.32 nM	0.00052 s⁻¹	1.7e+06 M⁻¹ s⁻¹	B9
0.25 nM	0.00043 s⁻¹	2.1e+06 M⁻¹ s⁻¹	B10
1.7 nM	0.0039 s⁻¹	2.7e+06 M⁻¹ s⁻¹	B13
2.4 nM	0.0039 s⁻¹	1.7e+06 M⁻¹ s⁻¹	B2
2 nM	0.0039 s⁻¹	2.2e+06 M⁻¹ s⁻¹	B14
0.2 nM	0.00029 s⁻¹	1.5e+06 M⁻¹ s⁻¹	B4

Biological target: T1, cynomolgus TREM-1 (cTREM-1) protein
Assay: SPR, mAb captured by anti-Fc, cTREM-1 as analyte

koff	kon	Kd	Binder
0.00016 s⁻¹	170000 M⁻¹ s⁻¹	–	B5
0.0003 s⁻¹	140000 M⁻¹ s⁻¹	2.1 nM	B6
0.00089 s⁻¹	250000 M⁻¹ s⁻¹	–	B7
0.0002 s⁻¹	170000 M⁻¹ s⁻¹	–	B11
0.00012 s⁻¹	180000 M⁻¹ s⁻¹	–	B9
0.0034 s⁻¹	280000 M⁻¹ s⁻¹	–	B13
0.00017 s⁻¹	140000 M⁻¹ s⁻¹	–	B2

Biological target: T2, human TREM-1 on cells
Assay: cell-based or functional assay
Remark: another data set of the same source

IC50, BWZ/hTREM-1 reporter cells stimulated with TREM-1 ligand complex	Binder
2.4 nM	B7
